Here are results for one compound from patent US11634702B2, “Cell signaling pathway activation by local AC electric field” (ARIZONA BOARD OF REGENTS ON BEHALF OF ARIZONA STATE …, priority 2018, dated 2023).

SMILES strings stand for the structures.

In assay [1] the test system is EGFR-Ras-ERK signaling pathway in MCF10A cells. The assay can be described thus: ERK activation by EGF chemical stimulation (ERKTR reporter), control groups of the blocker tests. It is filed as cell-based.
The test system is the same in assay [2]. The assay can be described thus: ERK activation by AC EF stimulation (ERKTR reporter) in blocker tests. It is filed as cell-based.

On to `CNC(=O)c1cc(Oc2ccc(NC(=O)Nc3ccc(Cl)c(C(F)(F)F)c3)cc2)ccn1` [sorafenib], for which the “effect on ERK activation by EGF stimulation” value in assay [1] is given as “abolished ERK activation”. Besides, the “effect on ERK activation under AC EF stimulation” value in assay [2] is “abolished ERK activation”.
